Measured values from patent US20220218837A1, “DRUG CONJUGATE” (priority 2018, published 2022).

Legend:
[1] = tested on: HSP27 mRNA in A2058 cells (EGFR-); assay: HSP27 gene silencing in A2058 cells; type: cell-based, human; details: for pIC50: A2058 (EGFR-), substance alone, no partner
Protocol: Cells were seeded in DMEM (PAN-Biotech GmbH) supplemented with 10% fetal bovine serum (PAN-Biotech GmbH) and 1% penicillin/streptomycin (PAN-Biotech GmbH), in a 96 well plate at 5,000 c/w in 100 μL/well and incubated overnight at 37° C. and 5% CO2. The next day samples were prepared in DMEM and cells were treated.
RNA isolation and Qper analysis was performed according to standard procedures and protocols.

[2] = tested on: HSP27 mRNA; assay: A431 xenograph 'nude' mouse tumor model, HSP27 gene expression in tumors; type: in vivo; details: 1 dosing of 30 mg/kg; 72h; compared to vehicle control
Protocol: This scaffold comprising conjugate was tested in a A431 xenograph ‘nude’ mouse tumor model for EGFR-mediated tumor targeted gene silencing activity. Dosings started at day 12 when tumors reached ˜170 mm^3 in size and tumor samples were collected at 72h after the first dosing and analysed for HSP27 gene expression compared to cellular control mRNA expression (reference genes).
Dosing started at day 12 when tumors reached ˜150 mm^3 in size and HSP27 mRNA expression was determined. For this, tumor samples were collected at 72h after the first dosing and analysed for HSP27 gene expression levels compared to cellular control mRNA expression levels (reference genes). […] Dosings started at day 12 when tumors reached ˜150 mm^3 in size and HSP27 mRNA expression was determined. For this, tumor samples were collected at 72h after the first dosing and analysed for HSP27 gene expression levels compared to cellular control mRNA expression levels (reference genes).
Dosings started at day 12 when tumors reached ˜150 mm^3 in size and tumor samples were collected at 72h after the first dosing and analysed for HSP27 gene expression compared to control gene mRNA expression levels (reference genes). […] Compared to the vehicle control tumors, a reduction of 40% HSP27 gene silencing was observed.
Dosing started at day 12 when tumors reached ˜150 mm^3 in size and HSP27 mRNA expression was determined. […]

Substance | pIC50 [1] | IC50 HSP27 gene silencing ([1]; A2058, titrated + fixed 100 nM cetuximab-(Lys-L-HSP27BNA)^4) | reduction in HSP27 gene expression in the tumors [2] [%]
Cetuximab-(Cys-L-SO1861)^3,8(Lys-L-HSP27BNA)^3,8: SO1861 (labile) and HSP27BNA oligo (labile) conjugated to cetuximab | < 7.00 |  | 
cetuximab-(Cys-L-SO1861)^3,8: SO1861-EMCH conjugated via cysteine residues to cetuximab |  | no gene silencing activity was observed | 
cetuximab-Cys-(SO1861-L-trifunctional linker-L-HSP27BNA)^3′^7: trifunctional linker carrying SO1861 and HSP27BNA (labile), conjugated via maleimide to cysteines of cetuximab | 7.00 |  | 25

pIC50: −log10 of the molar value.
